Reference: patent publication US20230086703A1, “N-(4-(5-chloropyridin-3-yl)phenyl)-2-(2-(cyclopropanesulfonamido)pyrimidin-4-yl) butanamide derivatives and related compounds as human CTPS1 inhibitors for the treatment of proliferative diseases” (Step Pharma S.A.S., priority 2019, published 2023)
Read-outs that look alike come from different tables or passages of the source.

Key:
human CTPS1 [1] = target: T1, human CTPS1 (Homo sapiens, UniProt P17812); assay: Human CTPS1 enzyme inhibition, ADP-Glo Max assay
human CTPS1 [2] = target: T1, human CTPS1; assay: RapidFire/MS-based enzyme selectivity assay (human CTPS1 versus CTPS2), CTPS1 isoform; assay type: biochemical; settings: Table 16, human CTPS1 over human CTPS2, RapidFire/MS IC50 values
Procedure: Human CTPS1 Versus CTPS2 Selectivity Assessment by RapidFire/MS Analysis.
The enzyme inhibitory activities against each target isoform of interest may be determined for the compounds of the invention using an optimised RapidFire high-throughput mass spectrometry (RF/MS) assay format. RF/MS assays for both human CTPS1 and CTPS2 may be performed in assay buffer consisting of 50 mM HEPES (Merck), 20 mM MgCl2, 5 mM KCl, 1 mM DTT, 0.01% Tween-20, pH to 8.0 accordingly. Human full-length active C-terminal FLAG-His-tag CTPS1 (UniProtKB—P17812, CTPS1[1-591]-[…] (CTPS1[1-591]-SEQ ID NO: 1)) may be obtained from Proteros biostructures GmbH. […]
Human CTPS (1 or 2) protein may be prepared in 1× assay buffer to the final working protein concentration required for the reaction. […] Each mixture may be incubated for an appropriate amount of time per isoform within the determined linear phase of the reaction at 25° C. […]
In all cases, the enzyme converts UTP to CTP. […] Readout for data analysis may be calculated as the ratio between the peak area of the product CTP and the internal standard ^13C9-^15N3-CTP. […]
(R=ratio/readout, P=product signal area, IS=internal standard signal area) […]
(I=Inhibition, Rneq=median of negative control readout values, Rpos=median of positive control readout values, Rsample=sample readout value) […]

## CC(C)(C(=O)Nc1ccc(-c2cccnc2)cc1Cl)c1csc(NS(=O)(=O)C2CC2)n1
Human CTPS1 [1]; read-out: Human CTPS1 Enzyme Inhibition, IC50 grouped by potency range (CTPS1), ADP-Glo Max assay, Table 10
  IC50: 100 to 1000 nM

## CCOc1cncc(-c2ccc(C(=O)NC(C)(C)c3csc(NS(=O)(=O)C4CC4)n3)c(F)c2)n1
Human CTPS1 [1]; read-out: CTPS1 (Human CTPS1 Enzyme Inhibition data grouped by potency range), Table 11, ADP-Glo Max assay
  IC50: < 100 nM
Human CTPS1 [2]
  Selectivity (fold selectivity between CTPS1 and CTPS2): ++ (>30-60 fold (++))

## CCOc1cncc(-c2cnc(NC(=O)C(C)(C)c3ccnc(NS(=O)(=O)C4CC4)n3)c(F)c2)n1
Human CTPS1 [1]; read-out: CTPS1 (Human CTPS1 Enzyme Inhibition data grouped by potency range, IC50), ADP-Glo Max assay, human full length CTPS1
  IC50: < 100 nM
